This is an account of results in PubChem BioAssay AID798 (PCMD, 2007).

The chains behind the UniProt entries cited, without tags or fusion partners. Residues count along the entry.
UniProt P03951, 19-387 limits assumed: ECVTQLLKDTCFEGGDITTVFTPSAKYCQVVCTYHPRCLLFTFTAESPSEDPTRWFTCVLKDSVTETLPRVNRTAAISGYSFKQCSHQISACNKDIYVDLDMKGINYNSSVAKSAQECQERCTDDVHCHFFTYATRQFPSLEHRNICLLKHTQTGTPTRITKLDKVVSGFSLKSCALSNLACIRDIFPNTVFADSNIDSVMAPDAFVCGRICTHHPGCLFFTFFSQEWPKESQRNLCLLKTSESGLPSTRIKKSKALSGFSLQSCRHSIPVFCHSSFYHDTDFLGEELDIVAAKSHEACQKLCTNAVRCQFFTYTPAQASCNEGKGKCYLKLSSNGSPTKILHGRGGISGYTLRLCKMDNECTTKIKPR
UniProt P03951, 388-625 limits assumed: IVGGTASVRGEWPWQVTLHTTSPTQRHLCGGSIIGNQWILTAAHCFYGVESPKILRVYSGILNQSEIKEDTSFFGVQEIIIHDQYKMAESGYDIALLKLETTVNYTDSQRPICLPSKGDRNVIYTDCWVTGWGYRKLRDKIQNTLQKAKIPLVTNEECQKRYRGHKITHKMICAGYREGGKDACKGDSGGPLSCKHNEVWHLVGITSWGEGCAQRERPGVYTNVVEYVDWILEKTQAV

For orientation: inhibition means the relative decrease from the control value, in per cent.

Each structure is given as a SMILES string. This is a selection; strong and weak results do not stand in their true shares. Active and inactive are the calls of the source.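 The calls were made as follows: active = inhibition of at least 40%; inactive = inhibition below 40%.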

The target of this test is Coagulation factor XI (Homo sapiens) (UniProt P03951). Kind of test: factor XIa enzyme inhibition, large library – biochemical, 1536-well, primary screen (AID 798).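 Also: fluorescence of freed AMC excited at 355 nm; 0% = enzyme without compound and 100% = no enzyme blank.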 As to conditions: purified FXIa, Boc-Glu-Ala-Arg-AMC fluorogenic substrate; at 5 µM; hits give high values.
Take `O=C(NCC1(N2CCCCC2)CCCCC1)c1cccc([N+](=O)[O-])c1`: the inhibition is inactive: -2.47%.

For `N#CC1(Nc2ccccc2)CCN(CCc2ccccc2)CC1`, the inhibition is inactive: 3.87%.

As for `COc1ccc(NC2CCN(C(=O)OC(C)(C)C)CC2)cc1`, the inhibition was inactive: 1.98%.

On to `CN1CCN(CCOC(=O)C(O)(c2ccccc2)c2ccccc2)CC1`, for which the inhibition was inactive: 7.61%.

`O=C(NCC1(N2CCOCC2)CCCCC1)c1cc(=O)[nH]c2ccccc12`: the inhibition is inactive: 0.3%.

Take `COc1ccc(CN(CCCl)CCCl)cc1Cl`: the inhibition is inactive: -3.41%.

Regarding `CN(C)c1cccc(C(=O)NCC2(N3CCCCC3)CCCCC2)c1`, the inhibition was inactive: 1.53%.

In the case of `CC(C)c1ccc(NC2CCN(C(=O)OC(C)(C)C)CC2)cc1`, the inhibition is inactive: -1.44%.

As to `COc1ccc(C(=O)NCC2(N3CCCCC3)CCCCC2)c(OC)c1OC`, the inhibition was inactive: -6.44%.

Take `O=C(NCC1(N2CCOCC2)CCCCC1)c1cc2ccccc2o1`: the inhibition was inactive: 17.4%.

Take `CCOC(=O)N1CCC(Nc2ccc(OC)cc2)CC1`: the inhibition is inactive: -5.54%.

For the molecule `N#CC1(Nc2ccccc2)CCN(Cc2ccccc2)CC1`, the inhibition was inactive: 7.83%.

For `O=C(OC1CN2CCC1CC2)C1c2ccccc2Oc2ccccc21` (centres undefined), the inhibition was inactive: -3.85%.

In the case of `CCOc1ccc(C)cc1CN(CCCl)CCCl`, the inhibition was inactive: 8.97%.

In the case of `COc1ccc(NC2CCN(CCc3ccccc3)CC2)c(OC)c1`, the inhibition is inactive: -3.07%.

For the molecule `Cc1ccc(OCC(C)C)c(CN(CCCl)CCCl)c1`, the inhibition was inactive: 6.17%.

With `Fc1ccccc1NC1CCN(Cc2ccccc2)CC1`, the inhibition is inactive: 10.8%.

Regarding `CCN1CCC(Nc2cccc(F)c2)CC1`, the inhibition is inactive: 3.65%.

Take `CN(C)c1ccc(C(=O)NCC2(N3CCCCC3)CCCCC2)cc1`: the inhibition was inactive: -1.69%.

In the case of `CCOc1ncccc1C(=O)NCC1(N2CCOCC2)CCCCC1`, the inhibition was inactive: 4.83%.

Regarding `CC(C)(C)OC(=O)N1CCC(Nc2ccccc2)CC1`, the inhibition is inactive: 18.1%.

On to `CCC(CO)(C(=O)OC1CN2CCC1CC2)c1ccccc1` (centres undefined), for which the inhibition was inactive: 4.73%.

On to `COc1cc(OC)cc(C(=O)NCC2(N3CCOCC3)CCCCC2)c1`, for which the inhibition was inactive: -5.64%.

Regarding `CCCOc1ccc(C)cc1CN(CCCl)CCCl`, the inhibition was inactive: 7.36%.

With `COc1ccc(C(=O)NCC2(N3CCOCC3)CCCCC2)cc1OC`, the inhibition was inactive: 1.79%.

With `N/C(=N\O)c1c(N)no[n+]1[O-]`, the inhibition was inactive: -6.43%.

In the case of `O=C(OC1CN2CCC1CC2)C1c2ccccc2C=Cc2ccccc21` (centres undefined), the inhibition was inactive: -1.44%.

Turning to `N#Cc1ccc(C(=O)NCC2(N3CCCCC3)CCCCC2)cc1`, the inhibition is inactive: 1.29%.

`c1ccc(CN2CCC(Nc3ccccc3)CC2)cc1`: the inhibition was inactive: -4.48%.
